Experiment: cells
Assay type: cell-based
Details: Huh-7

Cc1nc(C)c(-c2cc(C(=O)N3CCC(c4ccc(Cl)cc4)CC3)ccc2C)[nH]1
EC50: 115 nM

Reference: ChEMBL document CHEMBL5726717, “Heterocyclic modulators of lipid synthesis and combinations thereof” (2019)
